Measured values reported in patent US20240307373A1, “METHODS OF USE AND COMPOSITIONS OF BISBENZYLISOQUINOLINES FOR THE TREATMENT OF MALIGNANCIES” (priority 2023, published 2024).

By UniProt entry, the sequences of proteins in these tests, tags left out.
UniProt Q13555, whole entry: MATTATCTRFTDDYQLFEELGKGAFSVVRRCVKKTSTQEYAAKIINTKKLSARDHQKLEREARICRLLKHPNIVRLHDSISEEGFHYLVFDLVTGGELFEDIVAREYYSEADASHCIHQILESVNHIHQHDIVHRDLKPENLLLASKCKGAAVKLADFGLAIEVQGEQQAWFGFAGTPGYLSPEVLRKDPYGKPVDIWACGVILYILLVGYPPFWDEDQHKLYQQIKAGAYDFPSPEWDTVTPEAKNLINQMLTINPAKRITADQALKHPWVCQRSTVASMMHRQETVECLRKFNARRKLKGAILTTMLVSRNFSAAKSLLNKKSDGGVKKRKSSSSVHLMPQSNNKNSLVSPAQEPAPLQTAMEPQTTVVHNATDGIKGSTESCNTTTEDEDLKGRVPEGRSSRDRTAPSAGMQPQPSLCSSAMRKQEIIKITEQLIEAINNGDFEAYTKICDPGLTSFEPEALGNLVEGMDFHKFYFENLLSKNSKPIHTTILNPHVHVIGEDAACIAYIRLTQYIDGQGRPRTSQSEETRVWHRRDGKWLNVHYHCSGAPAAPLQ
UniProt P08183, whole entry: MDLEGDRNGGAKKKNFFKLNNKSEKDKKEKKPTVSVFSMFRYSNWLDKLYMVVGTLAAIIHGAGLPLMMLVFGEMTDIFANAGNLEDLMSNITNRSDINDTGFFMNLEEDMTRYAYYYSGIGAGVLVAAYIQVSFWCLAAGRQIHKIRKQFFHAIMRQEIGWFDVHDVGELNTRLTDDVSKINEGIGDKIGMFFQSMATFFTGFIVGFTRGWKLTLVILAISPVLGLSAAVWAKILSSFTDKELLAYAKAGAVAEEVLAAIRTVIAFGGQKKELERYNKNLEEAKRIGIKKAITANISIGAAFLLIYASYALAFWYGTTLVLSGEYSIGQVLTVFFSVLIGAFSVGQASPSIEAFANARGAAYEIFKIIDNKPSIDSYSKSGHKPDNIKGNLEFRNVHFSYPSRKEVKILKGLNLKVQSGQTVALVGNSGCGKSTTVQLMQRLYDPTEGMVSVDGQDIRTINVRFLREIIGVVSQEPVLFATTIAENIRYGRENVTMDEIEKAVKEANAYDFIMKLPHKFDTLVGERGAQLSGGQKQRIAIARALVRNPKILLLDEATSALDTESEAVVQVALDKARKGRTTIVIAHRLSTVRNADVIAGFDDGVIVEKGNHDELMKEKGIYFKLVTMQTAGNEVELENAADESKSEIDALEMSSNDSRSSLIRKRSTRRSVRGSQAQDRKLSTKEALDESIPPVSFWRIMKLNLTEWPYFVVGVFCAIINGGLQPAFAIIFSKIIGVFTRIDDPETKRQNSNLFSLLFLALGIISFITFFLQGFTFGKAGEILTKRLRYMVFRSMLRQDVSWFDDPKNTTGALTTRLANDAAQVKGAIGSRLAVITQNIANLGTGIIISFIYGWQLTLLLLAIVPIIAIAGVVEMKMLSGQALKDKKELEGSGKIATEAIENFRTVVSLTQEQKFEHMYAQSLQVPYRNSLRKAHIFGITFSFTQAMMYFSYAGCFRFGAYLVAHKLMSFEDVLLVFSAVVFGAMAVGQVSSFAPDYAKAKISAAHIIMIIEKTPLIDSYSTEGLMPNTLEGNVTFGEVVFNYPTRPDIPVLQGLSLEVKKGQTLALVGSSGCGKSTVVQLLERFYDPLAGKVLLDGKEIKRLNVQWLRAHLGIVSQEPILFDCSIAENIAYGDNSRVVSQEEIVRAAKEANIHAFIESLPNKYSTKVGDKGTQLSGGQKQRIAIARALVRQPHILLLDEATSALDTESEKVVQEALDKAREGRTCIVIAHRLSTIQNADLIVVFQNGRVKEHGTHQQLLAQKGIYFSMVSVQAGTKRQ

Tests used:
CAMKII gamma = CAMKII gamma (Homo sapiens, UniProt Q13555); assay: CAMKII gamma kinase activity (ADP Glo); type: biochemical; conditions: 30-250 uM, 10 or 50 uM ATP
P-glycoprotein (P-gp) = P-glycoprotein (P-gp) (Homo sapiens, UniProt P08183); conditions: without altering the protein expression level of P-gp (Susa 2010); cited from earlier work

Compound: COc1ccc2cc1Oc1ccc(cc1)C[C@H]1c3cc(c(OC)cc3CCN1C)Oc1c(OC)c(OC)cc3c1[C@H](C2)N(C)CC3
- CAMKII gamma kinase activity inhibition (in words) (CAMKII gamma): inhibited CAMKII gamma kinase activity in a dose dependent manner
- function of Pgp (P-glycoprotein (P-gp)): directly inhibits the function of Pgp in a dose-dependent manner
